Test results taken from article PMC9502466, “Identification of SARS-CoV-2 Main Protease Inhibitors from a Library of Minor Cannabinoids by Biochemical Inhibition Assay and Surface Plasmon Resonance Characterized Binding Affinity” (Molecules, 2022).

Experiments:
SARS-CoV-2 M^pro [1] = target: T1, SARS-CoV-2 M^pro (Severe acute respiratory syndrome coronavirus 2, UniProt P0DTD1); settings: for Kd (dissociation constant) / Ka (association constant) / Kd: SPR; for Kd: read-out: KD (affinity)
SARS-CoV-2 M^pro [2] = target: T1, SARS-CoV-2 M^pro; assay: biochemical; settings: for kon: read-out: Ka (association constant)
[3] = cannabinoids, 2× fold dilutions from 75 to 4.68 μM

Row | SMILES | Kd (dissociation constant) (SARS-CoV-2 M^pro [1]) | RU in the SPR sensorgrams (SARS-CoV-2 M^pro [1]; [3]) | Kd (SARS-CoV-2 M^pro [2]) | kon (SARS-CoV-2 M^pro [2]) | binding in the SPR assay (in words) (SARS-CoV-2 M^pro [1]) | Ka (association constant) (SARS-CoV-2 M^pro [1]) | RU in the SPR sensorgrams (SARS-CoV-2 M^pro [1]; ligand at 1.56–50 μM) | Kd (SARS-CoV-2 M^pro [1]) | RU in the SPR sensorgrams (SARS-CoV-2 M^pro [1]; ligand at 1.56–25 μM)
1 | C=C(C)[C@@H]1CCC(C)=C[C@H]1c1c(O)cc(CCCCC)c(C(=O)O)c1O [CBDA, cannabidiolic acid] | 1.104 s⁻¹ | 4.3–50.6 RU | 90.8 µM | 12200 M⁻¹ s⁻¹ |  |  |  |  | 
2 | C=C(C)[C@@H]1CCC(C)=C[C@H]1c1c(O)cc(CCCCC)cc1O [CBD, cannabidiol, reference compound] | 0.04173 s⁻¹ | 10.9–71.0 RU | 78.3 µM | 533 M⁻¹ s⁻¹ |  |  |  |  | 
3 | CCCCc1cc(O)c2c(c1)OC(C)(C)[C@@H]1CCC(C)=C[C@@H]21 [THCB, Δ^9-tetrahydrocannabibutol] |  |  |  |  | not able to be measured |  |  |  | 
4 | Cc1cc(C(=O)N[C@@H](C)C(=O)N[C@H](C(=O)N[C@@H](CC(C)C)C(=O)N[C@H](/C=C/C(=O)OCc2ccccc2)C[C@@H]2CCNC2=O)C(C)C)no1 [M^pro N3] | 0.02898 s⁻¹ |  |  |  |  | 6631 M⁻¹ s⁻¹ | 7.4–26.6 RU | 4.37 µM | 
5 | CCCCCc1cc(O)c(C/C=C(\C)CCC=C(C)C)c(O)c1C(=O)O [CBGA, cannabigerolic acid] | 0.01516 s⁻¹ | 16.6–62.1 RU | 38.9 µM | 390 M⁻¹ s⁻¹ |  |  |  |  | 
6 | O=C[C@H](C[C@@H]1CCNC1=O)NC(=O)[C@H](Cc1cccc(F)c1)NC(=O)c1cc2ccccc2[nH]1 [M^pro 11b] | 0.05533 s⁻¹ |  |  |  |  | 7975 M⁻¹ s⁻¹ |  | 6.94 µM | 12.4–54.3 RU

Like-named read-outs stand apart in the source and are kept apart here.
